In US9745339B2 (GRAFFINITY PHARMACEUTICALS GMBH, priority 2012, dated 2017):

The compounds below were run on Bevacizumab (assay: Microtiter plate chromatography of resins: binding and elution of Bevacizumab). Conditions: fraction of bound Bevacizumab divided by fraction of bound HCP; truncated for values beyond 10.
Protocol: Resins were assessed in packed mode by microtiter plate chromatography. For each column, approximately 30 μl of resin were transferred to a 384-well filter plate and sealed with appropriate top fits. Columns with rProtein A SEPHAROSE 4 FF and MABSORBENT A2P HF were included as controls.
Columns were equilibrated with 6.7 column volumes (cv) of phosphate buffered saline (0.15 M NaCl, 20 mM sodium phosphate, pH 7.3; PBS) prior to injection. Either 3.3 cv of whole IgGs dissolved at 0.5 mg ml^−1 in PBS or undiluted host cell proteins (HCP) were injected onto columns.
Unbound protein was washed from columns with 5 cv of PBS prior to elution with 5 cv of glycine buffer at pH 2.5. […] During injection of samples, speed was reduced to 10 g and centrifugation time increased to 5-10 min. Effluent fractions were collected in 384-well plates and concentrations of protein were analyzed by Bradford assay. Protein masses mi, mft and me (see below) were calculated as the product of fraction volume and measured protein concentration.
The fraction of bound protein was calculated as the difference between the total mass of protein injected mi and the mass of protein detected in the flowthrough mft, divided by the total mass of protein injected.
The yield of protein was calculated as the mass of protein eluted me, divided by the mass of protein injected mi.
The selectivity of resins was calculated as the fraction of bound Bevacizumab antibody BAb, divided by the fraction of bound host cell proteins BHCP.
The fraction of bound protein and the yield of protein were calculated for each resin based on data for whole IgG-antibodies. In the case of host cell proteins, only the fraction of bound protein is given. Selectivity of resins was calculated from data for Bevacizumab whole IgG and host cell proteins. Due to limited experimental precision, selectivity was truncated for values beyond 10.

SMILES	Selectivity
NCCOCCOCCn1cnc2cc(C(=O)Nc3nc(-c4ccccn4)cs3)ccc21	7.7
Cc1nc2cc(C(=O)Nc3nnc(-c4ccco4)s3)ccc2n1CCOCCOCCN	10.0
Cn1nc(C(=O)Nc2ccc3c(c2)ncn3CCCN)c2ccccc21 [Ligand L01, 1-(3-Amino-1-propyl)-5-[(1-methylindazol-3-yl)carboxamido]benzimidazole]	3.0
Cn1nc(NC(=O)c2ccc3c(c2)ncn3CCCN)c2ccccc21 [Ligand L02, 1-(3-Amino-1-propyl)benzimidazole-5-carboxylic acid N-(1-methyl-3-indazolyl) amide]	3.6
NCCCn1cnc2cc(NC(=O)c3cn4ccsc4n3)ccc21 [Ligand L30, 1-(3-Amino-1-propyl)-5-[(imidazo-[2,1-b]thiazol-6-yl)carboxamido]benzimidazole]	4.8
CCc1nc2cc(C(=O)Nc3nc(-c4ccccn4)cs3)ccc2n1CCCN [Ligand L43, 1-(3-Amino-1-propyl)-2-ethylbenzimidazole-5-carboxylic acid N-[4-(2-pyridyl)thiazol-2-yl] amide]	5.6
NCCCn1cnc2cc(C(=O)Nc3nc(-c4ccncc4)cs3)ccc21 [Ligand L47, 1-(3-Amino-1-propyl)benzimidazole-5-carboxylic acid N-[4-(4-pyridyl)thiazol-2-yl] amide]	7.7
Cc1nc2cc(C(=O)Nc3nc(-c4ccncc4)cs3)ccc2n1CCCN [Ligand L51, 1-(3-Amino-1-propyl)-2-methylbenzimidazole-5-carboxylic acid N-[4-(4-pyridyl)thiazol-2-yl] amide]	6.7

Results, then the compound that gave them:

Selectivity	SMILES
5.9	NCCCn1cnc2cc(C(=O)Nc3nnc(-c4ccco4)s3)ccc21 [Ligand L05, 1-(3-Amino-1-propyl)benzimidazole-5-carboxylic acid N-[5-(2-furyl)-1,3,4-thiadiazol-2-yl]amide]
4.3	CCc1nnc(NC(=O)c2ccc3c(c2)ncn3CCCN)s1 [Ligand L07, 1-(3-Amino-1-propyl)benzimidazole-5-carboxylic acid N-(2-ethyl-1,3,4-thiadiazol-5-yl) amide]
4.8	NCCCn1cnc2cc(C(=O)Nc3nncs3)ccc21 [Ligand L13, 1-(3-Amino-1-propyl)benzimidazole-5-carboxylic acid N-(1,3,4-thiadiazol-2-yl) amide]
6.3	Cc1nnc(NC(=O)c2ccc3c(c2)ncn3CCCN)s1 [Ligand L14, 1-(3-Amino-1-propyl)benzimidazole-5-carboxylic acid N-(2-methyl-1,3,4-thiadiazol-5-yl) amide]
7.1	NCCCNc1ccc(C(=O)Nc2nnc(-c3ccco3)s2)cn1 [Ligand L19, 6-[(3-Amino-1-propyl)amino]nicotinic acid N-[5-(2-furyl)-1,3,4-thiadiazol-2-yl]amide]
7.7	NCCCn1cnc2cc(C(=O)Nc3nc(-c4ccccn4)cs3)ccc21 [Ligand L23, 1-(3-Amino-1-propyl)benzimidazole-5-carboxylic acid N-[4-(2-pyridyl)thiazol-2-yl] amide]
5.0	Cn1c(CCCCCN)nc2cc(C(=O)Nc3nnc(-c4ccco4)s3)ccc21 [Ligand L31, 2-(5-Amino-1-pentyl)-1-methylbenzimidazole-5-carboxylic acid N-[5-(2-furyl)-1,3,4-thiadiazol-2-yl]amide]
10.0	Cc1nsc(NC(=O)c2ccc3c(c2)ncn3CCCN)n1 [Ligand L36, 1-(3-Amino-1-propyl)benzimidazole-5-carboxylic acid N-(3-methyl-1,2,4-thiadiazol-5-yl) amide]
4.9	NCCCNc1ccc(C(=O)Nc2nc(-c3ccccn3)cs2)cn1 [Ligand L40, 6-[(3-Amino-1-propyl)amino]nicotinic acid N-[4-(2-pyridyl)thiazol-2-yl] amide]
7.4	Cc1nc2cc(C(=O)Nc3nc(-c4ccccn4)cs3)ccc2n1CCCN [Ligand L42, 1-(3-Amino-1-propyl)-2-methylbenzimidazole-5-carboxylic acid N-[4-(2-pyridyl)thiazol-2-yl] amide]
6.3	CCc1nc2cc(C(=O)Nc3nnc(-c4ccco4)s3)ccc2n1CCCN [Ligand L44, 1-(3-Amino-1-propyl)-2-ethylbenzimidazole-5-carboxylic acid N-[5-(2-furyl)-1,3,4-thiadiazol-2-yl] amide]
5.9	NCCCn1cnc2cc(C(=O)Nc3nc(-c4cccnc4)cs3)ccc21 [Ligand L46, 1-(3-Amino-1-propyl)benzimidazole-5-carboxylic acid N-[4-(3-pyridyl)thiazol-2-yl] amide]
